In patent US6426068B1, “Therapeutic uses of heterologous superoxide dismutase (HSD), and method for selecting said HSD” (Fractales Biotech, priority 1998, dated 2002):

Tested on: human macrophages
Experiment: TNF-α production by human macrophages with β-amyloid or MPTP
Details: FIGS. 12 and 13

In the case of “HuSOD: recombinant human Cu/Zn SOD, homologous comparator”, the “effect on β-amyloid- and MPTP-induced TNF-α production and apoptosis of macrophages” value was “has no or few effects”.
